Results from patent US9694016B2 (dated 2017).
Where two headings read alike, the source gives them in different places.

Chains of the proteins cited; added tags and fusions are not shown. Lines headed by an entry give the natural chain unless they say otherwise; changes in a name come on top. Residues count along the entry.
UniProt P15056, whole entry V600E: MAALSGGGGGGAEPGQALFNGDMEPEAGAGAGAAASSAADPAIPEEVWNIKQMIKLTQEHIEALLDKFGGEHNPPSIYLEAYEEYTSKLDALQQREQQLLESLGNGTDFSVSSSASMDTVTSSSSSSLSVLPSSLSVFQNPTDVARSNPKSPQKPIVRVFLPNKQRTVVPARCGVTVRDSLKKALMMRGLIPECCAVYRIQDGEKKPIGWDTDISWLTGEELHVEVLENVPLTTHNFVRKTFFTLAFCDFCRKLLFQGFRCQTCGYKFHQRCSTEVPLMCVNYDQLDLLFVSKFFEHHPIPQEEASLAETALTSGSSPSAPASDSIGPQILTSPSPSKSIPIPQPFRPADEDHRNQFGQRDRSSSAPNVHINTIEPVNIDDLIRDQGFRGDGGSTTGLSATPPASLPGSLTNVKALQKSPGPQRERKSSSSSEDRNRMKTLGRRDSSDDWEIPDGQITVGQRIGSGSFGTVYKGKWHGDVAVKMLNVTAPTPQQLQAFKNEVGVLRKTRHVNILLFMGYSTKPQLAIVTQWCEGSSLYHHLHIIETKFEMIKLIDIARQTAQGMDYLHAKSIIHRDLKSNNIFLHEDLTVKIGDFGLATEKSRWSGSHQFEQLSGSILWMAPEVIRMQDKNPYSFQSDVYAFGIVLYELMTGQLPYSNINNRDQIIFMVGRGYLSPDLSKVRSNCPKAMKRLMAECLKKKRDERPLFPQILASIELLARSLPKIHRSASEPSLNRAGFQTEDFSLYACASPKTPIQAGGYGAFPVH
UniProt P04049, 325-648: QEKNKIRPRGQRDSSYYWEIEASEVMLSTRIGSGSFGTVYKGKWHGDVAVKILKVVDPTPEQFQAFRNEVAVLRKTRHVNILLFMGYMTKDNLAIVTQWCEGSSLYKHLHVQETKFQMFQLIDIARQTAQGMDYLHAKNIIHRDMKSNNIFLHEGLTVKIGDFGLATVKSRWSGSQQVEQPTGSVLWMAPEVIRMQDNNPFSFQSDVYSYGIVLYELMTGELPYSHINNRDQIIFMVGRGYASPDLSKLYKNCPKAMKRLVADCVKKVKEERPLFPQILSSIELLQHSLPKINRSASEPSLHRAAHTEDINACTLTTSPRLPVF

Columns and labels:
b-Raf (V600E) [1] = target: T1, b-Raf (V600E) (Homo sapiens (Human), UniProt P15056, V600E); settings: read-out: b-Raf IC-50
[2] = target: C-Raf TR (truncated C-Raf protein, Δ1-324 deletion mutant) (Homo sapiens (Human), UniProt P04049); format: biochemical; settings: read-out: C-Raf TR IC50; truncated C-Raf approximately 4 nM, ATP 1 uM, 60 min pre-incubation, 1 hour reaction
b-Raf (V600E) [3] = target: T1, b-Raf (V600E); experiment: biochemical
[4] = Table 2, AlphaScreen, 3 hours reaction

Row | SMILES | IC50 (b-Raf (V600E) [1]; [4]) | IC50 (b-Raf (V600E) [3]) | also measured
1 | Cc1ccc(C(=O)Nc2cccc(C(F)(F)F)c2)cc1-c1cc(N2CCOCC2)nc(N2CCS(=O)(=O)CC2)n1 [Example 9, 3-(2-(1,1-dioxidothiomorpholino)-6-morpholinopyrimidin-4-yl)-4-methyl-N-(3-(trifluoromethyl)phenyl)benzamide] | 1.5 nM | – | –
2 | Cc1ccc(C(=O)Nc2cccc(C(F)(F)F)c2)cc1-c1cc(N2CCOCC2)ccn1 [Example 64, 4-methyl-3-(4-morpholinopyridin-2-yl)-N-(3-(trifluoromethyl)phenyl)benzamide] | – | – | IC50 [2]: 0.847 nM
3 | COc1ncc(-c2cc(NC(=O)c3ccnc(C(C)(C)C#N)c3)cnc2C)cc1N1CCOCC1 [Example 129, 2-(2-cyanopropan-2-yl)-N-(6′-methoxy-2-methyl-5′-morpholino-[3,3′-bipyridin]-5-yl)isonicotinamide] | 14.9 nM | – | –
4 | Cc1ncc(NC(=O)c2cccc(C(F)(F)F)c2)cc1-c1cc(N2CCOCC2)n(C)c(=O)c1 [Example 163] | 5.7 nM | – | –
5 | COC(=O)NCCn1cc(-c2cc(NC(=O)c3cccc(C(F)(F)F)c3)ccc2C)cc(N2CCOCC2)c1=O [Example 194, Methyl(2-(5-(2-methyl-5-(3-(trifluoromethyl)benzamido)phenyl)-3-morpholino-2-oxopyridin-1(2H)-yl)ethyl)carbamate] | – | 13.2 nM | –
6 | Cc1ccc(NC(=O)c2ccc(CN)c(C(F)(F)F)c2)cc1-c1cc(N2CCOCC2)c(=O)n(C)c1 [Example 461, 4-(aminomethyl)-N-(4-methyl-3-(1-methyl-5-morpholino-6-oxo-1,6-dihydropyridin-3-yl)phenyl)-3-(trifluoromethyl)benzamide] | – | 11 nM | –
7 | CNCc1ccc(C(=O)Nc2ccc(C)c(-c3cc(N4CCOCC4)c(=O)n(C)c3)c2)cc1C(F)(F)F [Example 466, N-(4-methyl-3-(1-methyl-5-morpholino-6-oxo-1,6-dihydropyridin-3-yl)phenyl)-4-((methylamino)methyl)-3-(trifluoromethyl)benzamide] | – | 5.5 nM | –
8 | Cc1ncc(NC(=O)c2cccc(C(F)(F)F)c2)cc1-c1cc(N2CCOCC2)n(C)c(=O)c1 [Example 498, N-(1′,2-dimethyl-6′-morpholino-2′-oxo-1′,2′-dihydro-[3,4′-bipyridin]-5-yl)-3-(trifluoromethyl)benzamide] | – | – | IC50 (b-Raf (V600E) [1]; AlphaScreen, 60 min pre-incubation, 3 hours reaction): 5.7 nM
9 | Cc1ccc(NC(=O)c2cccc(C(F)(F)F)c2)cc1-c1cc2nccn2c(N2CCOCC2)n1 [Example 828, N-(4-methyl-3-(5-morpholinoimidazo[1,2-c]pyrimidin-7-yl)phenyl)-3-(trifluoromethyl)benzamid] | – | – | IC50 (b-Raf (V600E) [1]): 1 nM
10 | Cc1ccc(NC(=O)c2cc(C(C)(C)N)cc(C(F)(F)F)c2)cc1-c1cc(N2CCOCC2)c(=O)n(C)c1 [Example 908, 3-(2-aminopropan-2-yl)-N-(4-methyl-3-(1-methyl-5-morpholino-6-oxo-1,6-dihydropyridin-3-yl)phenyl)-5-(trifluoromethyl)benzamide] | – | 6.88 nM | –
